Rows were chosen to be rich in hits. Some 1.3% of all compounds tested hit in one or more screens of this group.
AF4-AF9 inh: inhibitors of human MLL-AF4/AF9 interaction; hit rate 0.47% among 350,000; AID 651704; AlphaScreen, biotin-AF4 peptide binding to FLAG-AF9; inhibition, % at 10 µM; P42568;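 active = every replicate reaching a set inhibition limit, whatever the replicate mean, cut at about 25% in these data; inconclusive = mean inhibition reaches that limit but some replicates miss it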;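 also: 0% = plate neutral control median and 100% = total signal loss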
E-selectin induc: E-selectin induction on HUVECs. HUVEC E-selectin immunofluorescence imaging; normalized: neutral wells 0, TNF-alpha wells 100. AID 686992. hit rate 0.37% among 260,000. activation, % at 7.58 µM;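 active = mean E-selectin-positive cell signal at least 10% of the positive control, reached in at least 60% of replicates, without over 20% cell loss; inconclusive = no rule given, readout overlaps actives, possibly toxicity-flagged; inactive = the rest, including those meeting only one limit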
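Assay system: HUVEC primary endothelial cells. Input: 3,000 HUVEC seeded per well. Doses: one compound dose added by pin transfer. Read-out basis: % PE-positive cells. Benchmarks: TNF-alpha high, DMSO low. Detection: immunofluorescence imaging. Buffer or medium: EGM-2, gelatin.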
ERAP1 inh: blocks human ERAP1 aminopeptidase activity. Q9NZ08. inhibition, % at 10.7 µM. AID 652197. hit rate 0.15% among 340,000. recombinant ERAP1, Leu-AMC fluorescence, 60 min;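 active = mean replicate inhibition of at least 30%, or all replicates individually reaching that 30% level; inactive = mean below 30% and not every replicate reaching it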;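 also: 0% = neutral control wells and 100% = L-leucinethiol positive control wells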
ARNT TACC3 PPI: disruptors of human ARNT/TACC3 interaction. hit rate 0.66% among 390,000. AlphaScreen His-ARNT PAS-B/GST-TACC3 binding, luminescence; TACC3 fragment carries E629A point mutation. inhibition, % at 9.99 µM;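 active = mean inhibition of replicates at least 50% and at least half of replicates each reaching 50%; inconclusive = half or more replicates reach 50% but mean below 50%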;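 also: 0% = complete ARNT plus TACC3 wells and 100% = ARNT alone without TACC3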
S100A4 inh HTS: S100A4-myosin IIA interaction inhibition; S100A4/TAMRA-MyoIIA peptide fluorescence polarization; inhibition, % at 10.7 µM; AID 652163; P26447; hit rate 0.14% among 360,000;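 active = mean inhibition of at least 70% across replicates, with every replicate also reaching that level; inconclusive = mean inhibition reaches 70% but some replicates fall short; inactive = mean inhibition below 70%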
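Test system – S100A4 monomer (human) · Compound – single-point compound testing · Schedule – 5 min incubation before reading · Probe or stimulus – TAMRA-labelled myosin IIA heavy-chain peptide probe, 5 nM · Benchmarks – neutral control DMSO, positive control TFP · Medium – Calcium-containing HEPES buffer, pH 7.2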
Yeast UUG start: alters start codon recognition fidelity in yeast | S. cerevisiae UUG-firefly luciferase reporter, luminescence/redox ratio | activity score, % at 18.7 µM | hit rate 0.13% among 350,000 | AID 602363;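 active means replicate mean at a twofold rise or more, about +100% in these data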;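 further: firefly luciferase made from a UUG start codon reports start codon fidelity; reporter light over untreated wells divided by growth signal over untreated wells; some hits fall short of that in this replicate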
Numbers without * were called inactive; ? = inconclusive; / = no result.

Every second line gives: AF4-AF9 inh | E-selectin induc | ERAP1 inh | ARNT TACC3 PPI | S100A4 inh HTS | Yeast UUG start
> C[C@@H]1CCCCO[C@@H](CN(C)CC2CCCCC2)[C@@H](C)CN([C@@H](C)CO)C(=O)c2cc(NC(=O)Nc3ccc4c(c3)OCO4)ccc2O1
→ -13 | 0 | -4 | 12 | 7 | 18
> C[C@H](CO)N1C[C@H](C)[C@H](CN(C)CC2CC2)OCCCC[C@H](C)Oc2ccc(NC(=O)Nc3ccc4c(c3)OCO4)cc2C1=O
→ 36* | / | -3 | 26 | 10 | /
> COc1ccc2c3c([nH]c2c1)[C@H](CO)N(C(C)=O)CC31CCN(Cc2cc(-c3ccccc3)on2)CC1
→ 30* | 0 | -1 | / | 0 | /
> COc1ccc2c3c([nH]c2c1)[C@H](CO)N(C(=O)Nc1ccc(F)cc1)CC31CCN(Cc2cc(-c3ccccc3)on2)CC1
→ -1 | 0 | -4 | / | 2 | /
> COc1ccc2c3c([nH]c2c1)[C@H](CO)N(C(C)=O)CC31CN(Cc2cc(-c3ccccc3)on2)C1
→ 26* | 0 | 0 | / | -8 | /
> COc1ccc2c3c([nH]c2c1)[C@H](CO)N(C(C)=O)CC31CCN(Cc2ccccc2Cl)CC1
→ 2 | 0 | -2 | / | -4 | /
> COc1ccc2c3c([nH]c2c1)[C@@H](CO)N(C(C)=O)CC31CCN(Cc2cc(-c3ccccc3)on2)CC1
→ 36* | 0 | -2 | / | 7 | /
> COCCC(=O)N1CCc2c([nH]c3ccccc23)C1C(C)(C)C (stereo not drawn)
→ 1 | 4 | 23 | -7 | 2 | 4
> COCc1ccc(CN2CCc3c([nH]c4ccccc34)C2C(C)(C)C)o1 (stereo not drawn)
→ 7 | 6 | 3 | 45* | -4 | /
> COc1cccc(C(=O)Nc2ccc3c(c2)C(=O)N(C)C[C@H](OC)[C@@H](C)CN[C@H](C)CO3)c1
→ -1 | 0 | 0 | -4 | -1 | /
> O=C(N[C@@H]1CC[C@H](CCNC(=O)C2CC2)O[C@@H]1CO)c1ccccn1
→ -1 | 0 | 0 | 0 | 4 | -5
> O=C(COC(=O)c1ccccn1)c1cccc(Br)c1
→ -1 | / | -1 | 50* | -8 | -17
> Cc1cnc(C(=O)OCC(=O)c2ccccc2)cn1
→ -40 | 0 | 3 | 3 | 94* | /
> O=C(C[C@H]1C=C[C@H](NC(=O)C2CCOCC2)[C@H](CO)O1)Nc1ccccc1
→ 0 | 0 | -2 | / | 11 | /
> CCCNc1ncc2c(=O)[nH][nH]c(=O)c2n1
→ -1 | -2 | 0 | 81* | 0 | -26
> CCCNC(=O)N[C@@H]1CC[C@H](CC(=O)NC2CCCCC2)O[C@@H]1CO
→ -2 | 0 | -2 | -2 | ? | -1
> CN1C2CCC1/C(=C/c1cccn1C)C(=O)/C2=C\c1cccn1C
→ 43* | / | 12 | -4 | -93 | 41
> COc1ccc(C2NC(=S)NC3=C2N2CCC3CC2)cc1 (stereo not drawn)
→ -1 | / | -1 | active | -5 | /
> Fc1ccc(C2NC(=S)NC3=C2N2CCC3CC2)cc1 (stereo not drawn)
→ -6 | / | 1 | 0 | -3 | 12
> CC(C)[C@@H](C(=O)N[C@@H](CCc1ccc(O)cc1)C(=O)O)N(C)C(=O)[C@H](CO)NC(=O)[C@@H](O)[C@H](N)CCCCCCCCl
→ 0 | / | 62* | / | -4 | 21
> CC(C)C[C@H](NC(=O)[C@@H](O)[C@H](N)Cc1ccccc1)C(=O)O
→ 1 | 2 | / | / | -7 | /
> CNC[C@H]1Oc2ccc(NC(=O)Nc3c(C)noc3C)cc2C(=O)N([C@H](C)CO)C[C@H]1C
→ -2 | 0 | 0 | 4 | 5 | -15
> COc1ccc2c3c(n(C)c2c1)[C@@H](CO)N(C(=O)C1CCCC1)CC31CCN(Cc2cccc(F)c2)CC1
→ 38* | 0 | 0 | / | -8 | /
> COc1ccc2c3c(n(C)c2c1)[C@H](CO)N(C(=O)C1CCCC1)CC31CCN(Cc2cccc(F)c2)CC1
→ 26* | 0 | 0 | / | 2 | /
> N/C(=N\OS(=O)(=O)c1ccccc1)c1ccccn1
→ / | / | / | 65* | / | /
> CCC(=O)N[C@H]1C=C[C@@H](CC(=O)NCCN2CCCCC2)O[C@@H]1CO
→ -1 | 0 | 0 | -15 | -2 | -13
> CCC(=O)Nc1ccc2c(c1)C(=O)N(C)C[C@@H](OC)[C@H](C)CN(CCc1ccccc1)[C@@H](C)CO2
→ 1 | 0 | -3 | -2 | 3 | -13
> O=C1CN(/N=C/c2ccc([N+](=O)[O-])o2)C(=O)N1
→ 25* | 0 | 3 | / | -6 | -9
> COc1cc(NC(=S)N2CCN(CCO)CC2)c(OC)cc1Cl
→ -2 | / | 1 | / | 5 | -18
> OCCN1CCN(C(=S)c2ccc(Cl)c(Cl)c2)CC1
→ / | / | / | 66* | / | -21

Taken from above:
For ARNT TACC3 PPI, `CCCNC(=O)N[C@@H]1CC[C@H](CC(=O)NC2CCCCC2)O[C@@H]1CO` shows -2
For Yeast UUG start, `CCCNc1ncc2c(=O)[nH][nH]c(=O)c2n1` shows -26
For ERAP1 inh, `COc1ccc(C2NC(=S)NC3=C2N2CCC3CC2)cc1` (stereo not drawn) shows -1

Following part.
Every second line gives: AF4-AF9 inh | E-selectin induc | ERAP1 inh | ARNT TACC3 PPI | S100A4 inh HTS | Yeast UUG start
> COC(=O)[C@@]1(Cc2ccc(F)cc2)[C@H]2c3cc(C(=O)N(C)C)n(Cc4ccccc4)c3C[C@H]2CN1C(=O)c1ccccc1
→ 10 | 0 | 1 | / | -3 | /
> COC(=O)[C@@]1(Cc2ccc(F)cc2)[C@H]2c3cc(C(=O)N(C)C)n(Cc4ccc(C)o4)c3C[C@H]2CN1C(=O)c1ccccc1
→ 11 | 86* | / | / | -3 | /
> CCCC(=O)Nc1ccc2c(c1)C(=O)N(C)[C@H]1CC[C@@H](CC(=O)NCC3CC3)O[C@@H]1CO2
→ -1 | 0 | 1 | -4 | -3 | -15
> O=C(Cc1ccc(NC2=NC3CS(=O)(=O)CC3S2)cc1)NCCc1ccccc1 (stereo not drawn)
→ 2 | 3 | 3 | 0 | -1 | -10
> Cc1cccc(CCNC(=O)Cc2ccc(NC3=NC4CS(=O)(=O)CC4S3)cc2)c1 (stereo not drawn)
→ 47* | 0 | 8 | -2 | 1 | -9
> Cc1cc(C)c(NC(=O)CNC(=O)COC(=O)/C=C/c2cccs2)c(C)c1
→ 0 | -1 | 2 | 3 | 84* | -20
> Cc1noc(C)c1NC(=O)N[C@H]1CC[C@@H](CC(=O)N2CCCCC2)O[C@H]1CO
→ -1 | 0 | 0 | -6 | -1 | -16
> COc1ccc2nc(/N=C/c3c(C)[nH]n(-c4ccc(C)cc4C)c3=O)sc2c1
→ 4 | 0 | 11 | 66* | 3 | -20
> Cc1c(CCOC(=O)C23CC4CC(CC(C)(C4)C2)C3)sc[n+]1CC(=O)c1ccccc1
→ 14 | -2 | 7 | 24 | -4 | -11
> Cc1c(CCOC(=O)CC23CC4CC(CC(C)(C4)C2)C3)sc[n+]1CC(=O)c1ccccc1
→ 27* | / | 5 | 16 | -9 | /
> COC(=O)C1=C(C)NC(=O)/C1=C\N(C)C
→ -4 | 39* | 4 | 1 | -7 | /
> COC(=O)C1=C(C)NC(=O)/C1=C\c1cccs1
→ / | / | / | 1 | / | -15
> CN(C(=O)c1ccc2c(c1)OCO2)C1(C)CCS(=O)(=O)C1 (stereo not drawn)
→ -35 | -1 | -1 | 14 | -3 | -18

A second format for 2 compounds above.
SMILES	AF4-AF9 inh	E-selectin induc	ERAP1 inh	ARNT TACC3 PPI	S100A4 inh HTS	Yeast UUG start
Cc1c(CCOC(=O)C23CC4CC(CC(C)(C4)C2)C3)sc[n+]1CC(=O)c1ccccc1	14	-2	7	24	-4	-11
Cc1c(CCOC(=O)CC23CC4CC(CC(C)(C4)C2)C3)sc[n+]1CC(=O)c1ccccc1	27*	/	5	16	-9	/

Screening results as filed in PubChem.
